Reference: patent US11136311B2, “Heteroaromatic derivatives as NIK inhibitors” (Janssen Pharmaceutica NV, priority 2016, dated 2021)

The chains behind the UniProt entries cited, without tags or fusion partners.
UniProt Q99558, whole entry: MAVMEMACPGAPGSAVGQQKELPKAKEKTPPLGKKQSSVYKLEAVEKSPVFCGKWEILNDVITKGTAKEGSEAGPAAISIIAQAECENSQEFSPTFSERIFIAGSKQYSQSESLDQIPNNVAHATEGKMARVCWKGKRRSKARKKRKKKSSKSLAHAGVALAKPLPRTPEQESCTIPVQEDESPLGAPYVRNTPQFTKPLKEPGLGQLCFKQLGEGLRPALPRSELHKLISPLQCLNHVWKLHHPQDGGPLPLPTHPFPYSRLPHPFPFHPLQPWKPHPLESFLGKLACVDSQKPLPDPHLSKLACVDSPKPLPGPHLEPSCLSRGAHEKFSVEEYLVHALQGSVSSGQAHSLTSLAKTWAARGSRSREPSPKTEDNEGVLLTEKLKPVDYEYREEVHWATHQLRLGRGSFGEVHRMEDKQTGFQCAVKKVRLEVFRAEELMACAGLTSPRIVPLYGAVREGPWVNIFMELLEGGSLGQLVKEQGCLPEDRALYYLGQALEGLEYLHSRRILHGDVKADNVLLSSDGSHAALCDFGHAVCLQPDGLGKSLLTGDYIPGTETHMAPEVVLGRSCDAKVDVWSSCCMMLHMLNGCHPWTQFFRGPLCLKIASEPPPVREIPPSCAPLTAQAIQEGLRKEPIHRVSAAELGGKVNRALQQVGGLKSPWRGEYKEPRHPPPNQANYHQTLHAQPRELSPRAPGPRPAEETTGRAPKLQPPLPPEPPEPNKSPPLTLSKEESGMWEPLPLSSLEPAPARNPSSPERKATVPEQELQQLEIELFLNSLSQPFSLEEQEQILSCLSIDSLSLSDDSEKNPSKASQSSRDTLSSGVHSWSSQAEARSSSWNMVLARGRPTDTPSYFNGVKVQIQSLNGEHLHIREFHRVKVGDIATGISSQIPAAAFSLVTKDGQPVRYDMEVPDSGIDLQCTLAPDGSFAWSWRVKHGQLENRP

Key:
[1] = biological target: recombinant human NF-kappaB-inducing kinase (NIK/MAP3K14) (Homo sapiens (Human), UniProt Q99558); assay: Inhibition of auto-phosphorylation of recombinant human NIK/MAP3K14 activity (AlphaScreen); details: read-out: Auto-phosphorylation inhibition of NIK (IC50 (nM)), averaged values over all measurements on all batches
Description: Inhibition of auto-phosphorylation of recombinant human NF-kappaB-inducing kinase (NIK/MAP3K14) activity (AlphaScreen®)
NIK/MAP3K14 auto-phosphorylation activity was measured using the AlphaScreen® (αscreen) format (Perkin Elmer). All compounds tested were dissolved in dimethyl sulfoxide (DMSO) and further dilutions were made in assay buffer. Final DMSO concentration was 1% (v/v) in assays. Assay buffer was 50 mM Tris pH 7.5 containing 1 mM EGTA (ethylene glycol tetraacetic acid), 1 mM DTT (dithiothreitol), 0.1 mM Na3VO4, 5 mM MgCl2, 0.01% Tween® 20. Assays were carried out in 384 well Alphaplates (Perkin Elmer). Incubations consisted of compound, 25 microM Adenosine-5′-triphosphate (ATP), and 0.2 nM NIK/MAP3K14. Incubations were initiated by addition of GST-tagged NIK/MAP3K14 enzyme, carried out for 1 h at 25° C. and terminated by addition of stop buffer containing anti-phospho-IKK Ser176/180 antibody. Protein A Acceptor and Glutathione-Donor beads were added before reading using an EnVision® Multilabel Plate Reader (Perkin Elmer). Signal obtained in the wells containing blank samples was subtracted from all other wells and IC50's were determined by fitting a sigmoidal curve to % inhibition of control versus Log10 compound concentration.

[2] = tested on: P-IKKα levels in L363 cells; assay: Effect of compounds on P-IKKα levels in L363 (NIK translocated multiple myeloma) cells; details: read-out: Inhibition of pIKKα_L-363 (IC50 (nM)), averaged values
Description: Effect of compounds on P-IKKα levels in L363 (NIK translocated multiple myeloma) cells
All compounds tested were dissolved in DMSO and further dilutions were made in culture medium. Final DMSO concentration was 1% (v/v) in cell assays. The human L363 cells (ATCC) were cultured in RPMI 1640 medium supplemented with GlutaMax and 10% fetal calf serum (PAA). Cells were routinely maintained at densities of 0.2×10^6 cells per ml-1×10^6 cells per ml at 37° C. in a humidified 5% CO2 atmosphere. Cells were passaged twice a week splitting back to obtain the low density. Cells were seeded in 96 well plates (Nunc 167008) at 2×10^6 per ml media in a volume of 75 μl per well plus 25 μl 1 μg/ml recombinant human B-cell activating factor (BAFF/BLyS/TNFSF13B). Seeded cells were incubated at 37° C. in a humidified 5% CO2 atmosphere for 24 hr. Drugs and/or solvents were added (20 μl) to a final volume of 120 μl. Following 2 hr treatment plates were removed from the incubator and cell lysis was achieved by the addition of 30 μl 5× lysis buffer followed by shaking on a plate shaker at 4° C. for 10 min. At the end of this incubation lysed cells were centrifuged at 800×g for 20 min at 4° C. and the lysate was assessed for P-IKKα levels by sandwich immuno-assay carried out in anti-rabbit antibody coated Mesoscale plates. Within an experiment, the results for each treatment were the mean of 2 replicate wells. For initial screening purposes, compounds were tested using an 8 point dilution curve (serial 1:3 dilutions). For each experiment, controls (containing MG132 and BAFF but no test drug) and a blank incubation (containing MG132 and BAFF and 10 μM ADS125117, a test concentration known to give full inhibition) were run in parallel. The blank incubation value was subtracted from all control and sample values. To determine the IC50 a sigmoidal curve was fitted to the plot of % inhibition of control P-IKKα levels versus Log10 compound concentration.

JJN-3 cells = assay: Antiproliferative activity on JJN-3 (NIK translocated) multiple myeloma cells (CellTiter-Glo); details: read-out: JJN-3 Proliferation inhibition (IC50 (nM)); JJN-3 (NIK translocated) cells, 96 hr; averaged values
Description: (§1) Determination of antiproliferative activity on JJN-3 (NIK translocated) and KMS12-BM (NIK WT) multiple myeloma cells
(§2) All compounds tested were dissolved in DMSO and further dilutions were made in culture medium. Final DMSO concentration was 0.3% (v/v) in cell proliferation assays. Viability was assessed using CellTiter-Glo cell viability assay kit (Promega). The human JJN-3 and KMS12-BM cells (DSMZ) were cultured in RPMI 1640 medium supplemented with 2 mM L-glutamine, and 10% fetal calf serum (PAA). Cells were routinely kept as suspension cells at 37° C. in a humidified 5% CO2 atmosphere. Cells were passaged at a seeding density of 0.2×10^6/ml twice a week. Cells were seeded in black tissue culture treated 96-well plates (Perkin Elmer). Densities used for plating ranged from 15000 (JJN3) to 20000 (KMS12BM) cells per well in a total volume of 135 μl medium. Drugs and/or solvents were added (15 μl) to a final volume of 150 μl. Following 96 hr of treatment, plates were removed from the incubator and allowed to equilibrate to room temperature for approx 10 min. 75 μl CellTiter-Glo reagent was added to each well that was then covered (Perkin Elmer Topseal) and shaken on plate shaker for 10 min. Luminescence was measured on a HTS Topcount (Perkin Elmer). Within an experiment, the results for each treatment were the mean of 2 replicate wells. For initial screening purposes, compounds were tested using a 9 point dilution curve (serial 1:3 dilutions). For each experiment, controls (containing no drug) and a blank incubation (containing cells read at the time of compound addition) were run in parallel. The blank value was subtracted from all control and sample values. For each sample, the mean value for cell growth (in relative light units) was expressed as a percentage of the mean value for cell growth of the control.

KMS12-BM cells = assay: Antiproliferative activity on KMS12-BM (NIK WT) multiple myeloma cells (CellTiter-Glo); details: read-out: KMS-12 Proliferation inhibition (IC50 (nM)), 96 hr, averaged values
Description: as §1, §2

Structure (SMILES)	IC50 [1]	IC50 [2]	IC50 (JJN-3 cells)	IC50 (KMS12-BM cells)
CC(C)n1nc(Nc2nccc(-c3cc(C#N)c4c(c3)[C@@](C)(CO)CN4)n2)cc1C(=O)N(C)C1CC1	11.7 nM	98 nM	257 nM	> 10000 nM
CN(C)C(=O)Cn1ccc(Nc2nccc(-c3cc(C#N)c4c(c3)C(C)(CO)CN4)n2)n1 (stereo not shown)	10 nM		4360 nM	4170 nM
CC(C)CCc1c(Nc2nccc(-c3cc(C#N)c4c(c3)[C@@](C)(CO)CN4)n2)cnn1CCC(C)C		12 nM	112 nM	6460 nM
CC1(Cn2cc(Cl)cc2Nc2nccc(-c3cc(C#N)c4c(c3)[C@@](C)(CO)CN4)n2)COC1		35 nM	832 nM	2630 nM
Cn1nc(C(C)(C)C)cc1Nc1nccc(-c2cc(C#N)c3c(c2)C(C)(CO)CN3)n1 (stereo not shown)	5.5 nM		129 nM	7940 nM
CC(C)n1cc(Nc2nccc(-c3cc(C#N)c4c(c3)C(C)(CO)CN4)n2)cn1 (stereo not shown)	5.4 nM		191 nM	437 nM
Cc1cc(Nc2nccc(-c3cc(C#N)c4c(c3)C(C)(CO)CN4)n2)n(CC(=O)N(C)C)n1 (stereo not shown)	11 nM		1860 nM	> 10000 nM
